Values of other authors, collected in PMC7584369, “Di-bromo-Based Small-Molecule Inhibitors of the PD-1/PD-L1 Immune Checkpoint” (Journal of Medicinal Chemistry, 2020).

System: Jurkat PD-1 Effector Cells alone or in co-culture with CHO K-1 PD-L1 aAPCs
Conditions: Skalniak et al. (2017), Figure 2a; cited from earlier work

## Cc1c(COc2cc(OCc3cccc(C#N)c3)c(CN3C[C@H](O)C[C@@H]3C(=O)O)cc2Cl)cccc1-c1ccc2c(c1)OCCO2 [BMS-1166, reference compound]
  concentration that decreased the viability of the cells by 50%: 40 µM
